For one test, the target named is human MOR (Homo sapiens, UniProt P35372). Kind of test: [3H]naloxone competition binding, MOR-CHO cell membranes, low-affinity buffer. Conditions: fold change of Ki, vehicle vs 10 μM BMS-986122.
Test [1] deals with T1, human MOR signaling through Gαi1 (Homo sapiens, UniProt P35372).
T1 construct: host or cells: HEK 293T, transient
The format is cell-based.

By UniProt entry, the sequences of proteins in these tests, tags left out.
UniProt P35372, whole entry: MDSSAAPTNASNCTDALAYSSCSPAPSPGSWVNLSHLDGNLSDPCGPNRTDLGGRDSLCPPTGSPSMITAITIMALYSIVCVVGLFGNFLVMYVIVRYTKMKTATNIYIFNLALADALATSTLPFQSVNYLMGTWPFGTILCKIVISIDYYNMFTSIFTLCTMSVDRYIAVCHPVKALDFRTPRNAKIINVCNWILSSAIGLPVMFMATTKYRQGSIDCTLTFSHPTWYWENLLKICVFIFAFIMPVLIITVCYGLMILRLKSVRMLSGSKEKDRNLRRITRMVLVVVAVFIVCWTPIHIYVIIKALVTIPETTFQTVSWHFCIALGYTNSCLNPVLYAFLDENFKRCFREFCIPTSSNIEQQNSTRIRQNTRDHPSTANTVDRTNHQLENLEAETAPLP

Test [2] addresses T2, human MOR signaling through Gαi2 (Homo sapiens, UniProt P35372).
T2 construct: host or cells: HEK 293T, transient
The format is cell-based.

Test [3] has as its target T3, human MOR signaling through Gαi3 (Homo sapiens, UniProt P35372).
T3 construct: host or cells: HEK 293T, transient
The format is cell-based.

Test [4] addresses T4, human MOR signaling through GαoA (Homo sapiens, UniProt P35372).
T4 construct: host or cells: HEK 293T, transient
The format is cell-based.

Test [5] deals with T5, human MOR signaling through GαoB (Homo sapiens, UniProt P35372).
T5 construct: host or cells: HEK 293T, transient
The format is cell-based.

In test [6] the target is T6, human MOR signaling through Gαz (Homo sapiens, UniProt P35372).
T6 construct: host or cells: HEK 293T, transient
The format is cell-based.

Marks after values point to notes of the source that are not given here.

`CSCC[C@H](NC(=O)[C@H](Cc1ccccc1)NC(=O)CNC(=O)CNC(=O)[C@@H](N)Cc1ccc(O)cc1)C(=O)O` [Met-Enkephalin, methionine-enkephalin]: the “Ki (Veh)/Ki (BMS)” value at human MOR was 6.0 **. The ΔpEC50 in test [1] is on record as 0.723 ± 0.049; in test [2], 0.475 ± 0.017; in test [3] it was 0.639 ± 0.034; in test [4], 0.537 ± 0.038; in test [5], 0.578 ± 0.056; in test [6] it was 0.315 ± 0.091.

The values are drawn from publication PMC12138978, “Mu Opioid Receptor Positive Allosteric Modulator BMS-986122 Confers Agonist-Dependent G Protein Subtype Signaling Bias” (Biochemistry, 2025).
